# Measured affinities in a library of Ab-14 light chain variants

Values reported by Engelhart et al. 2022, doi:10.1038/s41597-022-01779-4 (FLAb copy).

All variants were tested on one target, the spike HR2 peptide PDVDLGDISGINAS (SARS-CoV-2).

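Library AAYL50 holds single substitutions and randomly drawn double and triple substitutions in the CDRs. In AlphaSeq, yeast of one mating type display the scFv and yeast of the other type display the target. The frequency of each diploid, read from paired DNA barcodes, reflects how well the two displayed proteins bind. The ratio of observed to expected reads was calibrated, replicate by replicate, on BCL2-family standards whose Kd was known from biolayer interferometry. Each pool was mated in three replicate cultures.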

Ab-14 is the parent antibody, in scFv form: VH, then a 15-residue (Gly4Ser)3 linker, then VL. The heavy chain is unchanged in all variants.
VH: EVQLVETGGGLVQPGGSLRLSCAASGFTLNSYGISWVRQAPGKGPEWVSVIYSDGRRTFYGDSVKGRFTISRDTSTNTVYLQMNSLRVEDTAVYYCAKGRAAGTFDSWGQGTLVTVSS
VL: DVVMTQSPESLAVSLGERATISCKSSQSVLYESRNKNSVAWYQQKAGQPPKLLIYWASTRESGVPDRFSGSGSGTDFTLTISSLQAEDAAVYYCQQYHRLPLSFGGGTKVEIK

Variants are written as CDR1, CDR2 and CDR3 of the light chain (limits as in the source). Parent: KSSQSVLYESRNKNSVA, WASTRES, QQYHRLPLS. Scale: log10 of Kd in nM, estimated from mating counts; low values are strong binders. Replicates are averaged; those with no signal do not enter the mean. An entry "nd" has no value in the source: the pair was not observed among the diploids in that replicate. This suggests poor binding but is not conclusive.

| # | CDR-L1 | CDR-L2 | CDR-L3 | log10 Kd (nM) by replicate | log10 Kd (nM), mean | signal with controls |
|---|---|---|---|---|---|---|
| 1 | KSSQKVLYESDNKNSVA | WASTRES | QQPHRLPLS | nd nd nd | nd | 0/9 |
| 2 | KSSQSVLYESRNKNSVA | WASTVES | QQYTRLPLS | 3.00 2.95 nd | 2.98 | 1/9 (4.97) |
| 3 | VSSQSVVYESRNKNSVA | WASTRES | QQYHRLPLF | 1.39 1.41 1.51 | 1.44 | 2/9 (4.27) |
| 4 | KSRQSVLYESTNKNSVA | WASRRES | QQYHRLPLS | 2.24 2.35 2.10 | 2.23 | 1/9 (3.23) |
| 5 | KSSQSVLYRSQNKNSVA | WASTREQ | QQYHRLPLS | nd 5.07 nd | 5.07 | 2/9 (5.14) |
| 6 | KSSQSVYYESRNVNSVA | WASTRES | QQYHRLPAS | nd nd 2.32 | 2.32 | 1/9 (3.40) |
| 7 | KSSQSVLYESRNKNSVA | WASTRES | QQVHINPLS | 3.46 4.05 nd | 3.76 | 3/9 (5.17) |
| 8 | KSSQSVLYESRNKNSNA | WAVTRES | QQYHGLPLS | nd 4.00 nd | 4.00 | 1/9 (3.42) |
| 9 | KSSQSVLYESRNKNSVA | WASTREG | QQYHRLPLS | 2.68 2.16 2.69 | 2.51 | 2/9 (3.02) |
| 10 | KSTQSVLYESRNKNSVA | WASTREA | QQYHRLPNS | nd nd nd | nd | 1/9 (3.49) |
| 11 | KSSQAVLYESRNKNSYA | WASTRES | QQYHRLHLS | nd nd nd | nd | 2/9 (3.91) |
| 12 | KSKQSVLYESRNKNSPA | WAGTRES | QQYHRLPLS | nd 4.87 nd | 4.87 | 2/9 (3.55) |
| 13 | KSSQSVLYESRNLSSVA | WASTRES | QQYHRLDLS | nd nd nd | nd | 0/9 |
| 14 | KSSQSVLYESRAKASFA | WASTRES | QQYHRLPLS | nd 4.29 4.64 | 4.46 | 2/9 (4.62) |
| 15 | KSSQFVDYESRNKNSVA | WASTRES | QQTHRLPLS | nd nd nd | nd | 3/9 (4.49) |
| 16 | KSSQSVWYESRNMNSVA | WNSTRES | QQYHRLPLS | 2.67 2.94 3.08 | 2.90 | 2/9 (4.96) |
| 17 | KSLQSVLLLSRNKNSVA | WASTRES | QQYHRLPLS | 1.94 1.86 1.94 | 1.91 | 0/9 |
| 18 | KSSQSVLYESRNKNSVD | WASTRES | QQYRVLPLS | nd nd nd | nd | 0/9 |
| 19 | DSSQSVLYESRNKNSVA | WASTPES | QVYHRLPLS | nd nd 5.46 | 5.46 | 1/9 (3.76) |
| 20 | HSSQSVLYESRNKNSVA | WASTRCS | QCYHRLPLS | 1.80 1.46 1.83 | 1.70 | 2/9 (3.00) |
| 21 | WSSQSVLYESRNKNSVG | WASTDES | QQYHRLPLS | nd nd nd | nd | 1/9 (3.46) |
| 22 | KSSQSVLYESRNKNKVA | WYSTRES | QQYKRLPLS | nd nd 5.98 | 5.98 | 2/9 (4.10) |
| 23 | KSWQSVLYESRNKNSVA | WASTRES | QQHHRLPLS | 2.70 2.35 2.03 | 2.36 | 2/9 (3.85) |
| 24 | KSSQSVSYESRNKNSVA | WAPTFES | QQYHRLPLS | nd nd nd | nd | 0/9 |
| 25 | KSSQSVLNESRNKRSVA | WASTRES | QQYHRLDLS | nd nd nd | nd | 1/9 (4.00) |
| 26 | KSSQSVLYESRNKNSVA | WHSTRES | QQYHYLPLM | 4.59 nd nd | 4.59 | 1/9 (4.15) |
| 27 | KSSQSVLYESRNKNSRA | WASTRES | QQYHRMPFS | nd nd nd | nd | 0/9 |
| 28 | KSSLSVLYESRNKYSVA | WASTRES | QQYMRLPLS | 3.29 4.13 2.11 | 3.18 | 1/9 (3.70) |
| 29 | KSSQSVLYESRNHNSVA | WATTQES | QQYHRLPLS | nd 4.58 4.60 | 4.59 | 5/9 (5.08) |
| 30 | HSSQSLLYESRNKPSVA | WASTRES | QQYHRLPLS | 3.79 2.93 3.10 | 3.28 | 2/9 (4.66) |
| 31 | KSSQSVLYESRNKISVA | DASTRES | VQYHRLPLS | 0.58 0.79 0.79 | 0.72 | 2/9 (5.32) |
| 32 | YSSQSVLYESRNKNSVA | WASVHES | QQYHRLPLS | nd nd nd | nd | 0/9 |
| 33 | KSSQSVLNESRNKNSVA | WASTRES | QQGHRLILS | 1.16 1.19 1.34 | 1.23 | 3/9 (4.09) |
| 34 | KYSQSVLYESRNKNSVY | WASTRES | QQSHRLPLS | 4.40 nd nd | 4.40 | 4/9 (4.64) |
| 35 | KNSQSVLYVSRNKNSVA | WASTRES | QRYHRLPLS | nd 5.44 nd | 5.44 | 1/9 (3.74) |
| 36 | KWSQSVLQESRNFNSVA | WASTRES | QQYHRLPLS | 0.43 0.82 0.70 | 0.65 | 3/9 (3.61) |
| 37 | KSSQSVLYENRNKNSSA | WASTRES | QQYHRLPLE | nd nd nd | nd | 3/9 (4.65) |
| 38 | KSSQSVLMESRNKNSVA | WASHRES | QQYHMLPLS | 0.79 1.02 1.07 | 0.96 | 4/9 (4.55) |
| 39 | KSSQSVLDESRNKNSVA | WASTRES | QFYHRLPLD | 1.04 1.26 1.12 | 1.14 | 2/9 (5.34) |
| 40 | KSSQSVLYESREKNSVS | WASTRES | QQYHRLPLS | nd 2.83 nd | 2.83 | 0/9 |

Excerpt, the first 2 entries:

| CDR-L1 | CDR-L2 | CDR-L3 | log10 Kd (nM) by replicate | log10 Kd (nM), mean | signal with controls |
|---|---|---|---|---|---|
| KSSQKVLYESDNKNSVA | WASTRES | QQPHRLPLS | nd nd nd | nd | 0/9 |
| KSSQSVLYESRNKNSVA | WASTVES | QQYTRLPLS | 3.00 2.95 nd | 2.98 | 1/9 (4.97) |

Parent in this assay: reference entry 0.65, copy in this library 1.68. As a blank, each scFv also met three strains without target: over library AAYL50, 18% of these pairings were detected, typically at 4.19 and seldom below 2.99. The control count says in how many pairings with the empty strains this scFv gave a signal, with their mean in brackets.